# According to PubChem BioAssay AID1768 (National Center for Advancing Translational Sciences (NCATS), 2009):
# Protein sequences, listed by entry. Tags and fused reporters are not part of them.
# UniProt O00255, whole entry: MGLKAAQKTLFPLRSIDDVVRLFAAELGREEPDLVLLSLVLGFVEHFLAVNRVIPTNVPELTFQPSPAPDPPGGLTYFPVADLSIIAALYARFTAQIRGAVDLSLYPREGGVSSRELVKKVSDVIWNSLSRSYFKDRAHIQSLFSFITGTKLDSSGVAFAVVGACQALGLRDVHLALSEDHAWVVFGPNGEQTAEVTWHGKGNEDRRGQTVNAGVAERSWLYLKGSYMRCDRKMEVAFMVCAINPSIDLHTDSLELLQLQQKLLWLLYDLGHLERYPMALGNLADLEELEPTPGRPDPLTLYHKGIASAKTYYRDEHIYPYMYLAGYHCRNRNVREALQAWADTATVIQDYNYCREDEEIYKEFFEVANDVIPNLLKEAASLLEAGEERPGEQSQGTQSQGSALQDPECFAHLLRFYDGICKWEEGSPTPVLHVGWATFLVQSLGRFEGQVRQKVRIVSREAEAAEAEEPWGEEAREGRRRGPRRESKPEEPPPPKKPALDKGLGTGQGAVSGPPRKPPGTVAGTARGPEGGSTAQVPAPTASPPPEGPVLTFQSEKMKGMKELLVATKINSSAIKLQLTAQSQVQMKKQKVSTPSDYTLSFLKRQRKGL
# UniProt Q03164, whole entry partner: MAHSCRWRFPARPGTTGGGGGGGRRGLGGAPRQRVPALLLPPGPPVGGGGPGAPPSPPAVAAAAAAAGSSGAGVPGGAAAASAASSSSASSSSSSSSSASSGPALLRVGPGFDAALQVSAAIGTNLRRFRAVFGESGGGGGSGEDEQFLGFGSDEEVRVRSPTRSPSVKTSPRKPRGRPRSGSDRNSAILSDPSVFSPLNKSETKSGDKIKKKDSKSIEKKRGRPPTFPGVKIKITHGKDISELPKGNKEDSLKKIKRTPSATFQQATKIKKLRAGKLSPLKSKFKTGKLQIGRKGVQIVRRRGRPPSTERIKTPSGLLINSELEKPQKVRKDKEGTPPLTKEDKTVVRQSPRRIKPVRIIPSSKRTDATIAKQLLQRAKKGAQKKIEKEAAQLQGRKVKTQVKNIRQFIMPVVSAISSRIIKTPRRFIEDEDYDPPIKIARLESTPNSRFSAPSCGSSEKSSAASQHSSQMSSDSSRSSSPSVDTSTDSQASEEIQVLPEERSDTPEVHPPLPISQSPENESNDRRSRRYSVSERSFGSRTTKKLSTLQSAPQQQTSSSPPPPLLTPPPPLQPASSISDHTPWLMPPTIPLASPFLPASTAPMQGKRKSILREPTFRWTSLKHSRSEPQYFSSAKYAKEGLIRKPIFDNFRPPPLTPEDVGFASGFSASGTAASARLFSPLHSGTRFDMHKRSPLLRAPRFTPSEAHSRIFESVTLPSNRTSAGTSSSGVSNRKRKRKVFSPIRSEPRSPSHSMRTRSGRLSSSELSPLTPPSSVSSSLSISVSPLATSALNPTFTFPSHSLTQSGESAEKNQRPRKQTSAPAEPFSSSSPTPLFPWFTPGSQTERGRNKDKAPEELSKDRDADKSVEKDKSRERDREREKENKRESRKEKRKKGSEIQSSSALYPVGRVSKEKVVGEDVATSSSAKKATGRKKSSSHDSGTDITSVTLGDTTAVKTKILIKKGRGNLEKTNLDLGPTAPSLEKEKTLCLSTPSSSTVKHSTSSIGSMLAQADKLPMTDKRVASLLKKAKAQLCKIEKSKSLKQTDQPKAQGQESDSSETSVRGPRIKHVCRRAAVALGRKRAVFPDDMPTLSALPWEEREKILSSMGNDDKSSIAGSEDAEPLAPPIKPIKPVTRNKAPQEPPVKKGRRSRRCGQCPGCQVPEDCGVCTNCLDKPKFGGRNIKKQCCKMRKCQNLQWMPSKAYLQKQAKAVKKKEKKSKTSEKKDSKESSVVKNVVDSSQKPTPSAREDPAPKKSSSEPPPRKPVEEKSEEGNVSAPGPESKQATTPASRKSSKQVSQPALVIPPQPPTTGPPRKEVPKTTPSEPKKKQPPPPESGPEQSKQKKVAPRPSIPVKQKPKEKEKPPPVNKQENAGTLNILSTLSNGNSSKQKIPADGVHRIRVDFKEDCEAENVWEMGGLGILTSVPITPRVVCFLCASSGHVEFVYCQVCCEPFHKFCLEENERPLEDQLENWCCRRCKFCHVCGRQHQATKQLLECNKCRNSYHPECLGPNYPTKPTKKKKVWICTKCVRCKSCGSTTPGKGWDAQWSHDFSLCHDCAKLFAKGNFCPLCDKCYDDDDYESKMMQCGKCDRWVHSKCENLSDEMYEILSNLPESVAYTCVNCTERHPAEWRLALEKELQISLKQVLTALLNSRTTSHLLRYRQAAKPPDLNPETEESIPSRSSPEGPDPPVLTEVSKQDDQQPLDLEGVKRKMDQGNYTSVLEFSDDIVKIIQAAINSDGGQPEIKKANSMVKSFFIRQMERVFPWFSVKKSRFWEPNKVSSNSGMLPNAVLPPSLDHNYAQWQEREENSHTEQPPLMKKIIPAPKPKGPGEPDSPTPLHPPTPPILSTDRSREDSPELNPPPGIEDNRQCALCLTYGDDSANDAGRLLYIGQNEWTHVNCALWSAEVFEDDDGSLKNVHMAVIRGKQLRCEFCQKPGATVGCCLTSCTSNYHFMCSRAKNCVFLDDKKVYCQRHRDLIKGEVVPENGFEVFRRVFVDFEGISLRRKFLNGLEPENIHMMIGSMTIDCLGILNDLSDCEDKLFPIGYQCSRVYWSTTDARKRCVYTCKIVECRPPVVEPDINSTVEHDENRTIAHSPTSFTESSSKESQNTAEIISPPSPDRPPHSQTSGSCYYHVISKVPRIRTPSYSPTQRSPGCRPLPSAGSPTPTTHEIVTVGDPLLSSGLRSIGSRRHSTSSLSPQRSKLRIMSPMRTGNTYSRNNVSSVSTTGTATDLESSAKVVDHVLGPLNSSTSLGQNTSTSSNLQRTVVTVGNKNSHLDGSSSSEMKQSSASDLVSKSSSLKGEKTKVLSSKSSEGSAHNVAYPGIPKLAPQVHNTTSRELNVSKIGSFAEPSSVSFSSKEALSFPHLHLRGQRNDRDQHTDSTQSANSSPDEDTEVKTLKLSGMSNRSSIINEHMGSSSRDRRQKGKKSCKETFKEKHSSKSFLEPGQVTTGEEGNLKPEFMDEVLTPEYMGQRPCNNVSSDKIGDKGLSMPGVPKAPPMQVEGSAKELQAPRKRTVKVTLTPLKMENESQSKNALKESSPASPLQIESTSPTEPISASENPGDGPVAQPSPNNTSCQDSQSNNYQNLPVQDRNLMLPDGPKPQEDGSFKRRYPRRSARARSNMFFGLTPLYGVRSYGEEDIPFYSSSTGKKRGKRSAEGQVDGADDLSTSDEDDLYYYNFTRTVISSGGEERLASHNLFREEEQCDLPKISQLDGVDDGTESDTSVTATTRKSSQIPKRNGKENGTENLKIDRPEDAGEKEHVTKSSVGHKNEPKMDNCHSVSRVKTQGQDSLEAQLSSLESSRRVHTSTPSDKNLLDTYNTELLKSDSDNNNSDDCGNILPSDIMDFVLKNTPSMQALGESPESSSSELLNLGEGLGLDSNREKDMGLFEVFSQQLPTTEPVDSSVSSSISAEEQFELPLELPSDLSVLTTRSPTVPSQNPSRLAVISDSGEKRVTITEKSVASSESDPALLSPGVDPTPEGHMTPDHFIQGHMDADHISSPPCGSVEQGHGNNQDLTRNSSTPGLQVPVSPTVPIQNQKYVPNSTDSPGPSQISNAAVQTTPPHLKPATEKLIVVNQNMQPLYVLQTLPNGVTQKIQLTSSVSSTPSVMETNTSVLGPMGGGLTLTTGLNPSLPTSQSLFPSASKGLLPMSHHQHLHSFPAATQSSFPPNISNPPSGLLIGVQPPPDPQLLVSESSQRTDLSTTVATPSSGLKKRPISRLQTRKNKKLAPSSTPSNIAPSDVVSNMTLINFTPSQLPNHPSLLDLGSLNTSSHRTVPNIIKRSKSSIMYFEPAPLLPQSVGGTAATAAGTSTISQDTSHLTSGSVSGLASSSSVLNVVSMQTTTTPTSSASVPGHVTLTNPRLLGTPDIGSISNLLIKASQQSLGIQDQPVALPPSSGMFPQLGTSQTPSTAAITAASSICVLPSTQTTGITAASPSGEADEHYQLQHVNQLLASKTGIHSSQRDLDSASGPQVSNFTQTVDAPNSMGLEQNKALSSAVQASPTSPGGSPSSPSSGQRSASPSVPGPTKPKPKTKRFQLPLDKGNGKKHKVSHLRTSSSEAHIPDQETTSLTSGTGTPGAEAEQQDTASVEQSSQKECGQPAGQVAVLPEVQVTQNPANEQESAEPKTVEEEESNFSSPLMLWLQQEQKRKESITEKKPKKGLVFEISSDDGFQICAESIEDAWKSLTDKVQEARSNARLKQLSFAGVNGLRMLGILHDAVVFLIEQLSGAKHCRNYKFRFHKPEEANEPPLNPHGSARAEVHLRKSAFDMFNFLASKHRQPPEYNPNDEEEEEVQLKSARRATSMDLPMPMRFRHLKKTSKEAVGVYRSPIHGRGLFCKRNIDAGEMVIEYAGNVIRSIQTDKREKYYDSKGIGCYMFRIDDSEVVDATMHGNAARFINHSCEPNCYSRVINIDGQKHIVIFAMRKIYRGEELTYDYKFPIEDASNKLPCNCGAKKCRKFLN
# “And” between values parts separate entries of the source, which are not always exact repeats. Identical values can stand only once. Only a part is listed here, and it is no random draw. Records with an inconclusive call do not appear. The source made the active and inactive calls. The call rests on the fitted dose curve; in most records, active means well fitted inhibition curve with a large enough effect in the polarisation, with a control signal flat (not every such curve was filed as active); inconclusive means small, poorly fitted or top-dose-only effect, or effect the other way, or a change in a side signal; inactive means no such curve, though single readings can be large or run the other way; the % refers to the polarisation.
# Biological target: Menin (Homo sapiens) (UniProt O00255)
# Assay: qHTS Assay for Inhibitors Targeting the Menin-MLL Interaction in MLL Related Leukemias: Competition With Texas Red Labeled MLL-derived Mutant Peptide; further: % of control where 0% means no effect
# Details: fluorescence polarization; at 61.6 µM (top of the series)
row,Compound,"FP activity change, negative = inhibition"
1,CN(CCCl)CCCl,inactive: -2.87% and inactive: 2.4%
2,CCC(=O)N(c1ccccc1)C1CCN(CCc2ccccc2)CC1,inactive: -9.35%
